The record followed here is article PMC12260524, “Identification of a VPS29 isoform with restricted association to Retriever and Retromer accessory proteins through autoinhibition” (Proceedings of the National Academy of Sciences of the …, 2025).

This experiment addresses VPS35 (recombinant) (human) (UniProt Q96QK1). Description: mass photometry; purified VPS29C-containing Retromer at 50 to 100 nM in protein buffer (50 mM Tris-HCl pH 7.5, 200 mM NaCl, 2 mM β-mercaptoethanol), Refeyn OneMP.

Usually stoichiometry N stands for a count of units in the complex or per binding partner. Take “VPS29C (recombinant, subunit of the VPS29C-containing Retromer) (from UniProt F8VXU5 1-214) (natural protein)”: the stoichiometry N turned out to be 1.
